For this data set the following is noted: Gardnor scale.
Substance Castor Oil Benzoate [Example 5] showed a Color of 3.

Consider Castor Oil Benzoate [Example 3], for which the Color was 3.

For the substance Castor Oil Benzoate [Example 1], the Color is 3.

The substance Castor Oil Benzoate [Example 4] yielded a Color of 3.

Consider “Benzoate Ester of Octylhydroxy Stearate [Example 12]”, for which the Color amounted to 3.

Turning to Castor Oil Benzoate [Example 2], the Color is reported as 3.

Values taken from patent publication US5959130A, “Castor based benzoate esters” (Finetex, Inc., priority 1997, dated 1999).
